Results as given in US10934274B2, “Quinoline derivatives as TAM RTK inhibitors” (Qurient Co., Ltd., priority 2015, dated 2021).

By UniProt entry, the sequences of proteins in these tests, tags left out. Residues count along the entry.
UniProt P08581, 25-1390 limits assumed: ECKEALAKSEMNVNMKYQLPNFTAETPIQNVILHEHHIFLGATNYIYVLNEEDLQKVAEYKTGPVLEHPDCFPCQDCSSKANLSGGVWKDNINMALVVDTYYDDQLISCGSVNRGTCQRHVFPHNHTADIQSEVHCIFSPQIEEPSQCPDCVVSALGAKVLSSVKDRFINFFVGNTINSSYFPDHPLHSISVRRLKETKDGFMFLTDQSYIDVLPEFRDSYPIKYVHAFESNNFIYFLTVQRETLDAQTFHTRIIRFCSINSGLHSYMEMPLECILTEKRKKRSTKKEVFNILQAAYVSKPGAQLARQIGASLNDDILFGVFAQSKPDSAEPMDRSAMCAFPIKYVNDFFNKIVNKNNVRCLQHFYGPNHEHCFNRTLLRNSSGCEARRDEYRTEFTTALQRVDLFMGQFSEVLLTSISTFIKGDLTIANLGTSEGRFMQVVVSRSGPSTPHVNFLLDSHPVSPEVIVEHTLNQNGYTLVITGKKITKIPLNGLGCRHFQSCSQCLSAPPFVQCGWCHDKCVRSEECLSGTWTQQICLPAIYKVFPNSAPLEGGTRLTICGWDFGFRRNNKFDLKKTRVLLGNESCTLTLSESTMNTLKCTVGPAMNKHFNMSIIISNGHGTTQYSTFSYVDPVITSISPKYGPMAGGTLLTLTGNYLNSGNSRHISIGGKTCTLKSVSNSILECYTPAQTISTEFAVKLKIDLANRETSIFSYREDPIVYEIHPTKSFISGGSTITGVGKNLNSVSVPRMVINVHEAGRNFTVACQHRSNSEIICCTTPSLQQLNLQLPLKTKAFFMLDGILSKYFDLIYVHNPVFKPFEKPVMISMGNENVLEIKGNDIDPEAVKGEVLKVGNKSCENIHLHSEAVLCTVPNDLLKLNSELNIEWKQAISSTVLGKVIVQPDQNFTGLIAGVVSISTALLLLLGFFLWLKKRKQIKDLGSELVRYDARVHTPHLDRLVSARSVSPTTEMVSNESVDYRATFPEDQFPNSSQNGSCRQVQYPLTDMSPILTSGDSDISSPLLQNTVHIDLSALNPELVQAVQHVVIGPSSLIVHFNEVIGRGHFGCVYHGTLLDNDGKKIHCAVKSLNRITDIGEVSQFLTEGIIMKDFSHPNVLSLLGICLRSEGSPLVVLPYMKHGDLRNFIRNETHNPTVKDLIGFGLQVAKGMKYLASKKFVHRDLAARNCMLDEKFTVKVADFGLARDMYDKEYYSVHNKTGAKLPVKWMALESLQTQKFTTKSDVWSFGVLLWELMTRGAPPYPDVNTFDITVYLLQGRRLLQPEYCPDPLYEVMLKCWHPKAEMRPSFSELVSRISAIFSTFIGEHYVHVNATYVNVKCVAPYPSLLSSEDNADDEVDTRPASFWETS
UniProt Q12866, 21-999 limits assumed: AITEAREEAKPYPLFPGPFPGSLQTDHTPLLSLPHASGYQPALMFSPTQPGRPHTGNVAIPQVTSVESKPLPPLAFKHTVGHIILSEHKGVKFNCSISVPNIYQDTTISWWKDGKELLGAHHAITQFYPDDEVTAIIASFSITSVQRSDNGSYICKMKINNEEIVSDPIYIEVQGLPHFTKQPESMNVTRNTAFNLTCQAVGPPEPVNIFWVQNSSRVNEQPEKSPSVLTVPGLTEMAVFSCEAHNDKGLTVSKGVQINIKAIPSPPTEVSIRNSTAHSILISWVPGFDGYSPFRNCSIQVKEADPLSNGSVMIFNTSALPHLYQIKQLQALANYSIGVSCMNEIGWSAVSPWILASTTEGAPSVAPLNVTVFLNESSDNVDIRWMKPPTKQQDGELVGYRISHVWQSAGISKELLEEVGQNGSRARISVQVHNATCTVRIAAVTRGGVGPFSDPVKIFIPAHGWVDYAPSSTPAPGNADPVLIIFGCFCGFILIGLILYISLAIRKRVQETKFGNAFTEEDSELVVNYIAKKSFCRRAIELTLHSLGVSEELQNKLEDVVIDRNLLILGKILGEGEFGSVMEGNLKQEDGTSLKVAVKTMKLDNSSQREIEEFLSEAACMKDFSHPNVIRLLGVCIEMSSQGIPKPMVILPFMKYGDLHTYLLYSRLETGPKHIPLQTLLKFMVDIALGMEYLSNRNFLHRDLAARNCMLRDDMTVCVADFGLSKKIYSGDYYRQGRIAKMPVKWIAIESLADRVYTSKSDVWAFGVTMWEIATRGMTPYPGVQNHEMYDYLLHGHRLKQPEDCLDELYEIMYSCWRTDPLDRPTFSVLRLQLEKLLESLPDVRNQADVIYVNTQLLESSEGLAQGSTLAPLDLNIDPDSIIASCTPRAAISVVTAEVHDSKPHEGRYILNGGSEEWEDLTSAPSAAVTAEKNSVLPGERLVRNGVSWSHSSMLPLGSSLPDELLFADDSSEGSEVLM
UniProt Q06418, 41-890 limits assumed: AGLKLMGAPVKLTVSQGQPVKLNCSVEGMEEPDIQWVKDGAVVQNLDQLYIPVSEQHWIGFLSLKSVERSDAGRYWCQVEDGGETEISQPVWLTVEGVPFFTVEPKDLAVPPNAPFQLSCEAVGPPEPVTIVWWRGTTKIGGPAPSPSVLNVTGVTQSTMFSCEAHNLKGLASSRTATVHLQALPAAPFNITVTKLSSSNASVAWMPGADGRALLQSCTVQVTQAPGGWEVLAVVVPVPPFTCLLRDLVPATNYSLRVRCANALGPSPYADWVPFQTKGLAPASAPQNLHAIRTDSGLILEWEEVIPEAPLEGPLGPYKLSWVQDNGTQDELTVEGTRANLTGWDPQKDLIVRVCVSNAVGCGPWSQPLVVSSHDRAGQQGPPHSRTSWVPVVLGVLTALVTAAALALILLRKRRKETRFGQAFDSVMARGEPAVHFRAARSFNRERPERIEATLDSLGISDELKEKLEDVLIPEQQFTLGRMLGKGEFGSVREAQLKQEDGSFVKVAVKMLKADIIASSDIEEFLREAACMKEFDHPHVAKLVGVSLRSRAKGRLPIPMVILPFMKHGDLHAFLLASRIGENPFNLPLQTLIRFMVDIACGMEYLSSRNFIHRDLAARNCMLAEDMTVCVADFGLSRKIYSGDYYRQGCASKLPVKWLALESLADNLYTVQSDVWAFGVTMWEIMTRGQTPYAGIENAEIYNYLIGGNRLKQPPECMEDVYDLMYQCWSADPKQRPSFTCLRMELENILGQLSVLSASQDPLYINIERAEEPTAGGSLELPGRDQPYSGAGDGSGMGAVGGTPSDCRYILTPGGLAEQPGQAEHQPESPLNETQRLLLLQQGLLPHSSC
UniProt P30530, 26-894 limits assumed: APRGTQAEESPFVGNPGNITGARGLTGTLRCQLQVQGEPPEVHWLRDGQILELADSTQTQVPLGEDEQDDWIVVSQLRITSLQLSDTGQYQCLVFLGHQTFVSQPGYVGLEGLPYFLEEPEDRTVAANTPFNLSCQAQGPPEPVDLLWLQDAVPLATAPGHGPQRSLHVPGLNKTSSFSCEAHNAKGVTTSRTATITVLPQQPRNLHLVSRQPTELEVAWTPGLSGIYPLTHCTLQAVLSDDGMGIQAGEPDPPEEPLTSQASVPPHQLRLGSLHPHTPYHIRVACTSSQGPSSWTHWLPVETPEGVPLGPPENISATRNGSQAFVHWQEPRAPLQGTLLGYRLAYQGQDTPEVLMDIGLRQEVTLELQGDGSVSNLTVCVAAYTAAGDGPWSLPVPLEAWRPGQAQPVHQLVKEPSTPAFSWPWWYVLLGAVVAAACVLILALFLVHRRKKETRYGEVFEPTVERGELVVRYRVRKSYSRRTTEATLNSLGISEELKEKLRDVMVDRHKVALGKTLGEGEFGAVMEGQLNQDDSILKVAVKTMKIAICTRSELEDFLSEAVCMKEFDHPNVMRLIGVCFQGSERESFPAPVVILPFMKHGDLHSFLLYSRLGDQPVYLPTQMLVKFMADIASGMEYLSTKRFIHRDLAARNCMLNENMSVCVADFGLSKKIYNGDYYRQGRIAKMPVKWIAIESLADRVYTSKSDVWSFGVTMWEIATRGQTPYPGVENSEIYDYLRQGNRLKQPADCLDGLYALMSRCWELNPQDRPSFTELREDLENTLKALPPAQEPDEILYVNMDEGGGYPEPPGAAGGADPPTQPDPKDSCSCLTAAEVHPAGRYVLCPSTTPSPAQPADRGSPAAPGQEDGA

Columns and labels:
Met = Met (Homo sapiens, UniProt P08581); assay: LanthaScreen Eu kinase binding assay, Met; conditions: read-out: cMet kinase binding activity (Kd), Tracer 236
Mer = Mer (Homo sapiens, UniProt Q12866); assay: LanthaScreen Eu kinase binding assay, Mer; conditions: read-out: Mer kinase binding activity (Kd), Tracer 236
TYRO3 = TYRO3 (Homo sapiens, UniProt Q06418); assay: LanthaScreen Eu kinase binding assay, TYRO3; conditions: read-out: TYRO3 kinase binding activity (Kd), Tracer 236
Axl = Axl (Homo sapiens, UniProt P30530); assay: LanthaScreen Eu kinase binding assay, Axl; conditions: read-out: Axl kinase binding activity (Kd), Tracer 236
[1] = tested on: Axl phosphorylation in transiently transfected HEK293T cells; assay: Cellular Axl phosphorylation assay; conditions: read-out: Axl cellular (IC50); HEK293T cells transfected with Axl, 1 hour compound treatment, Phospho-Axl vs Total-Axl

Kd (Met)	Kd (Mer)	Kd (TYRO3)	Kd (Axl)	Structure (SMILES)	IC50 [1]
> 1000 nM	< 100 nM	100 to 1000 nM	< 100 nM	CCOc1cn(-c2cnccc2CO)nc1C(=O)Nc1ccc(Oc2ccnc3cc(OC)c(OC(F)(F)F)cc23)cc1F	–
100 to 1000 nM	< 100 nM	100 to 1000 nM	< 100 nM	CCOc1cn(C(C)(C)CC(=O)NC)nc1C(=O)Nc1ccc(Oc2ccnc3cc(OC)c(OC)cc23)cn1	< 100 nM
100 to 1000 nM	< 100 nM	100 to 1000 nM	100 to 1000 nM	CCOc1cn(CCc2cccnc2)nc1C(=O)Nc1ccc(Oc2ccnc3cc(OC)c(OC)cc23)cn1	–
